Measured values: ChEMBL document CHEMBL4130456, “Discovery of CDZ173 (Leniolisib), Representing a Structurally Novel Class of PI3K Delta-Selective Inhibitors” (ACS Med Chem Lett, 2017)

Sequences of proteins named here, by UniProt entry; tags and fusion partners are left off.
UniProt P42336, whole entry: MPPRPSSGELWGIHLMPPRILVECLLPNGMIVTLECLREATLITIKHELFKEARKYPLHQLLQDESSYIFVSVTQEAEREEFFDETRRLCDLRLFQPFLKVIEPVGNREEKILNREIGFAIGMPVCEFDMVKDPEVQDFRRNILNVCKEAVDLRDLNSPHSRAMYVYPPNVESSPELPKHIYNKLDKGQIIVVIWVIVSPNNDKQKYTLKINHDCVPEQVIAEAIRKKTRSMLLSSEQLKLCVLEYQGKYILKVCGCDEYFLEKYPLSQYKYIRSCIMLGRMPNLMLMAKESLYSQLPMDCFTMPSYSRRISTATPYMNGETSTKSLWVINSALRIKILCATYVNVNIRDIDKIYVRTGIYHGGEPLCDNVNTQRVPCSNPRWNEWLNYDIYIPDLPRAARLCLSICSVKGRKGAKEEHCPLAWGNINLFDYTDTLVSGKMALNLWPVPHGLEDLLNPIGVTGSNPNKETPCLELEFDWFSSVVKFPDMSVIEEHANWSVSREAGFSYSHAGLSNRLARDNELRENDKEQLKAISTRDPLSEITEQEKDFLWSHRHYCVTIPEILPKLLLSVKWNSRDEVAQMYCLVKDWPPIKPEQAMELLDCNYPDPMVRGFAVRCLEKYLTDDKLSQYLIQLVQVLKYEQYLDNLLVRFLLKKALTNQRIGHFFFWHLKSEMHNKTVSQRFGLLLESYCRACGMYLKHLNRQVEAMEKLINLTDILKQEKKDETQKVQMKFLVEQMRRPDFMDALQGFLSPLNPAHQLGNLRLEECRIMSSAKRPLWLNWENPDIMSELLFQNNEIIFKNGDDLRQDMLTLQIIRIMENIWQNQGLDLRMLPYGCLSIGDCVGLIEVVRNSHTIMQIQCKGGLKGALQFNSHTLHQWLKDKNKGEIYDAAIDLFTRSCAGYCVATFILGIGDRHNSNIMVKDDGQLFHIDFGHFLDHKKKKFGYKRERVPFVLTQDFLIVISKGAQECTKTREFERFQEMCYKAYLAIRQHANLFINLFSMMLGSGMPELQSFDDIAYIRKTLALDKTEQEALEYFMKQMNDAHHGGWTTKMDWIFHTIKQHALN

Columns and labels:
[1] = biological target: T1, Phosphatidylinositol 4,5-bisphosphate 3-kinase catalytic subunit delta isoform (Homo sapiens, UniProt O00329); test: Inhibition of PI3Kdelta in anti-CD3/CD28 stimulated human PBMC derived CD4-positive T cells assessed as reduction in T cell differentiation to Th2 cells by measuring IL-13 level after 72 hrs by ELISA
T1 sequence (O00329 whole entry): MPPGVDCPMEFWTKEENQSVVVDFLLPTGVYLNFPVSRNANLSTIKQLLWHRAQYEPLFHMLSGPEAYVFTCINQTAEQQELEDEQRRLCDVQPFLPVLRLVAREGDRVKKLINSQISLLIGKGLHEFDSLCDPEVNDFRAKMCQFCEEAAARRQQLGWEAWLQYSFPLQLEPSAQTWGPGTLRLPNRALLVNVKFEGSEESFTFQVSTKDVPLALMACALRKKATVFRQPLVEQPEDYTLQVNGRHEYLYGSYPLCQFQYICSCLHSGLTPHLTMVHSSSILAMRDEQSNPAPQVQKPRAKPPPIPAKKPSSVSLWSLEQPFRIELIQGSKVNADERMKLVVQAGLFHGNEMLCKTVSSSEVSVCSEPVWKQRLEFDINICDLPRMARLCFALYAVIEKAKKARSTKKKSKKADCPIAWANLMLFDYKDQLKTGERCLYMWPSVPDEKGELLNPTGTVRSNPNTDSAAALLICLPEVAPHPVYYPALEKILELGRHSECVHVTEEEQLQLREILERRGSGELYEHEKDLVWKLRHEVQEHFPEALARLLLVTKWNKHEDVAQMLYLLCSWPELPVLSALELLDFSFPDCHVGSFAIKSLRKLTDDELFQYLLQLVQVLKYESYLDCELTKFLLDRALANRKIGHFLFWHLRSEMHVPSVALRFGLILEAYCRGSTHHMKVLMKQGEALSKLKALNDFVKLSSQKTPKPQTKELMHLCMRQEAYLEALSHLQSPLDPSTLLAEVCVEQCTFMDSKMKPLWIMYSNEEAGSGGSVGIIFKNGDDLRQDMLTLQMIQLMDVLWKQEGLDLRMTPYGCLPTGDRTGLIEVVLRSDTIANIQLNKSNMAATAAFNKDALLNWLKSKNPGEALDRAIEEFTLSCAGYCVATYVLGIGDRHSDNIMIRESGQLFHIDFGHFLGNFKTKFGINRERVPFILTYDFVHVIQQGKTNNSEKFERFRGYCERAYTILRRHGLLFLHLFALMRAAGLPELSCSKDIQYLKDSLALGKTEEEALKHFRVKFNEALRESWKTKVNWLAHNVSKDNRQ

[2] = biological target: T1, Phosphatidylinositol 4,5-bisphosphate 3-kinase catalytic subunit delta isoform; test: Inhibition of PI3Kdelta (unknown origin) using phosphatidyl inositol as substrate measured after 60 mins by Alexa Fluor647-labelled ADP tracer based TR-FRET assay
[3] = species on record: Homo sapiens; test: Selectivity ratio of IC50 for recombinant human myristoylated PI3Kalpha catalytic domain expressed in Rat1 cells to IC50 for recombinant human myristoylated PI3Kdelta catalytic domain expressed in Rat1 cells; assay type: cell-based
[4] = biological target: T1, Phosphatidylinositol 4,5-bisphosphate 3-kinase catalytic subunit delta isoform; test: Inhibition of PI3Kdelta in anti-CD3/CD28 stimulated human PBMC derived CD4-positive T cells assessed as reduction in T cell differentiation to Th17 cells by measuring IL-17A level after 72 hrs by ELISA
[5] = biological target: T1, Phosphatidylinositol 4,5-bisphosphate 3-kinase catalytic subunit delta isoform; test: Inhibition of recombinant human myristoylated PI3Kdelta catalytic domain expressed in Rat1 cells assessed as reduction in Akt phosphorylation at […] residue after 1 hr by alpha screen Surefire assay; assay type: cell-based
[6] = biological target: T2, Phosphatidylinositol 4,5-bisphosphate 3-kinase catalytic subunit alpha isoform (Homo sapiens, UniProt P42336); test: Inhibition of recombinant human myristoylated PI3Kalpha catalytic domain expressed in Rat1 cells assessed as reduction in Akt phosphorylation at […] residue after 1 hr by alpha screen Surefire assay; assay type: cell-based
[7] = biological target: T2, Phosphatidylinositol 4,5-bisphosphate 3-kinase catalytic subunit alpha isoform; test: Inhibition of recombinant PI3Kalpha (unknown origin) using phosphatidyl inositol/n-Octyl-glucoside as substrate measured after 30 mins by KinaseGlo assay

IC50 [1] | IC50 [2] | IC50 [4] | IC50 [5] | IC50 [6] | IC50 [7] | Compound | Ratio IC50 [3]
95 nM | 11 nM | 73 nM | 56 nM |  |  | CCC(=O)N1CC[C@H](Nc2ncnc3c2CN(c2cnc(OC)c(C(F)(F)F)c2)CC3)C1 [LENIOLISIB] | 30
 |  |  |  | 6190 nM | 373 nM | COc1ncc(N2CCc3ncnc(N[C@H]4CCN(C(=O)C5CCOCC5)C4)c3C2)cc1C | 
